Values quoted from earlier work as cited in publication PMC10961402, “Safety, tolerability, pharmacokinetics and pharmacokinetic-pharmacodynamic modeling of cetagliptin in patients with type 2 diabetes mellitus” (Frontiers in Endocrinology, 2024).

Tested on: DPP-4 activity
Conditions: healthy male subjects; cited from earlier work

Compound: N[C@@H](CC(=O)N1CCn2c(nnc2C(F)(F)F)C1)Cc1cc(F)c(F)cc1F [Sitagliptin, sitagliptin, reference compound]
- inhibition of DPP-4 activity: ≥ 80%
